## Measured affinities in a library of Ab-14 light chain variants

Reference: Li et al. 2023, doi:10.1038/s41467-023-39022-2. File: FLAb, binding data.

All variants were tested on one target, the spike HR2 peptide PDVDLGDISGINAS (SARS-CoV-2).

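The variants were designed computationally from a first round of random CDR variants and then made and measured. Their group label is 14L_GP_Gen (GP: Gaussian process model; Gen: genetic algorithm; a sequence that several methods proposed may carry one label only). Affinity was read by AlphaSeq, a pooled yeast mating assay with surface-displayed partners. Binding brings cells together so that they mate, and sequencing counts the barcode pairs among the diploids. The ratio of observed to expected reads was calibrated, replicate by replicate, on BCL2-family standards whose Kd was known from biolayer interferometry. Each pool was mated in six replicate cultures.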

Each scFv is VH, a (GGGGS)3 linker, VL, as in the parent Ab-14, and differs from it in the CDRs of the light chain only.
VH: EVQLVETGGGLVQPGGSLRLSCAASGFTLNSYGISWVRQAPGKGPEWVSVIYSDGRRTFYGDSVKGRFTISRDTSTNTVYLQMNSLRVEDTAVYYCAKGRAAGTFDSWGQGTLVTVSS
VL: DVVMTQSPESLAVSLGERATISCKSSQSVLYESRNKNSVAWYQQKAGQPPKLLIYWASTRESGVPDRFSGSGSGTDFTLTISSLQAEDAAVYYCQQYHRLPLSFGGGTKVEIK

Sequences are complete VL domains. The read-out is the apparent dissociation constant on a log10 scale (nM): the lower, the stronger. Where no diploid with the target was found in that replicate, the entry reads "nd": below detection, most likely a poor binder, though not proof of it.

| # | VL | log10 Kd (nM) by replicate | control signals |
|---|---|---|---|
| 1 | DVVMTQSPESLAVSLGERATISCKLSQSVLYESRNKGSVAWYQQKAGQPPKLLIYNASTRESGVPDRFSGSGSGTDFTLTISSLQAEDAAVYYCQQYHRLPLSFGGGTKVEIK | nd 0.25 nd nd nd nd | 0 of 18 |
| 2 | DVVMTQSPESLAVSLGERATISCKVSQEVDYESRNKNSVAWYQQKAGQPPKLLIYDASTRESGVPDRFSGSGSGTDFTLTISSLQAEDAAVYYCQQYHRLPLSFGGGTKVEIK | 0.32 0.18 0.24 -0.05 0.11 0.30 | 1 of 18 (3.74) |
| 3 | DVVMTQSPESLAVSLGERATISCKLSQSVLYESRNKNSVAWYQQKAGQPPKLLIYSASTRESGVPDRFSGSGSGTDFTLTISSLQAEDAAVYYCQQYHRLPLMFGGGTKVEIK | -0.21 -0.32 -0.50 -0.38 -0.37 -0.35 | 1 of 18 (2.30) |
| 4 | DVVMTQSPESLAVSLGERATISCKLSQSCLYESRNKNSVAWYQQKAGQPPKLLIYEASTRESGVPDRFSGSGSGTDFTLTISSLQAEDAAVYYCQDYHRLPLSFGGGTKVEIK | 0.23 -0.10 -0.07 -0.13 0.22 0.10 | 5 of 18 (3.16) |
| 5 | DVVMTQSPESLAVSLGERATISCKLEQSWLYESRNKNSVAWYQQKAGQPPKLLIYNASTRLSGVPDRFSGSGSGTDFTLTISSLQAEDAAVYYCQQYHRLPLSFGGGTKVEIK | -0.13 -0.26 -0.31 -0.39 -0.20 -0.08 | 2 of 18 (2.57) |
| 6 | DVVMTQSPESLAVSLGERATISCKLSQSVLYQSRNKNSVAWYQQKAGQPPKLLIYEASTRESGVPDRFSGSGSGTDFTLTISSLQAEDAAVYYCQDYHRLPLSFGGGTKVEIK | 0.31 -0.06 -0.08 -0.01 -0.07 0.01 | 0 of 18 |
| 7 | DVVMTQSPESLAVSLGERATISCKLQQSELYESRNKNSVAWYQQKAGQPPKLLIYHASTRESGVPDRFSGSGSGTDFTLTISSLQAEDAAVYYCQQYHRLPLSFGGGTKVEIK | -0.26 -0.33 -0.21 -0.41 -0.53 -0.16 | 1 of 18 (4.41) |
| 8 | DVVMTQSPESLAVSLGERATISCKFYQSVLYESRNKNSVAWYQQKAGQPPKLLIYNASTRESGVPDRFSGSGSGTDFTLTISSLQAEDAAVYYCQQYHRLPLSFGGGTKVEIK | 0.69 0.90 0.81 0.77 0.56 1.11 | 0 of 18 |
| 9 | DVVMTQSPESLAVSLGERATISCALSQSWLYESRNKNSVAWYQQKAGQPPKLLIYNASTRESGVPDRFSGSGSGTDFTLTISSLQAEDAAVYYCQQYHRLPLSFGGGTKVEIK | nd 1.67 1.20 0.81 nd 1.63 | 0 of 18 |
| 10 | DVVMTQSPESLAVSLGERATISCKLSQSMLYESRNKNSVAWYQQKAGQPPKLLIYHASTRESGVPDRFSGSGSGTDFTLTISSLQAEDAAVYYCQQYHRLPLSFGGGTKVEIK | -0.12 -0.30 -0.26 -0.40 -0.24 -0.14 | 3 of 18 (3.25) |
| 11 | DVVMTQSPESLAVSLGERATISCHLSQSMLYESRNKNSVAWYQQKAGQPPKLLIYNASQRESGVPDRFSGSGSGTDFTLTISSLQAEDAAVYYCQQYHRLPLSFGGGTKVEIK | 0.09 0.00 0.05 -0.18 -0.14 0.15 | 2 of 18 (2.62) |
| 12 | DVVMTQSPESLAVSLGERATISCKVEQSHLYESRNKNSVAWYQQKAGQPPKLLIYNASQRESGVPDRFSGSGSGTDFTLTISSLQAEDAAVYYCQQYHRLPLSFGGGTKVEIK | 0.21 -0.14 -0.13 -0.22 -0.20 0.00 | 0 of 18 |
| 13 | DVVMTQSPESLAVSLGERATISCKLSQSVMYESRNKNNVAWYQQKAGQPPKLLIYDASTRESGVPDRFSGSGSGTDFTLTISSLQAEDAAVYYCQQYHRLPLSFGGGTKVEIK | -0.58 -0.67 -0.73 -0.69 -0.62 -0.48 | 2 of 18 (2.14) |
| 14 | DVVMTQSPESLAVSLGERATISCKFSQSMLYESRNKNSVAWYQQKAGQPPKLLIYDASQRESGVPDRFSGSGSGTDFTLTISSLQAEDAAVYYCQQYHRLPLSFGGGTKVEIK | -0.19 -0.52 -0.66 -0.43 -0.54 -0.15 | 0 of 18 |
| 15 | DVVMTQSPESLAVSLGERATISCKISQSVGYESRNKNSVAWYQQKAGQPPKLLIYDASTRESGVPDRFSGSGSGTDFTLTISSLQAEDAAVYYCQQYHRLPLSFGGGTKVEIK | -0.29 -0.57 -0.54 -0.68 -0.63 -0.58 | 1 of 18 (2.50) |
| 16 | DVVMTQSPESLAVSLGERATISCKLSQSVLYEMRNKNSVAWYQQKAGQPPKLLIYGASTRESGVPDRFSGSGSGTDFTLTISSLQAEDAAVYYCQQYHRLPLSFGGGTKVEIK | -0.23 -0.28 -0.49 -0.58 -0.65 -0.41 | 2 of 18 (2.99) |
| 17 | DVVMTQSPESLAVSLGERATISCKISQSWLYESRNKNSVAWYQQKAGQPPKLLIYNASQRESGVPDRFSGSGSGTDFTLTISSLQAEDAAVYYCQQYHRLPLSFGGGTKVEIK | 0.17 0.07 -0.18 -0.19 -0.29 0.12 | 0 of 18 |
| 18 | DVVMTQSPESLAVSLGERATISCKLSQSYLYEQRNKNSVAWYQQKAGQPPKLLIYSASTRESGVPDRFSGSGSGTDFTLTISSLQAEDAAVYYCQQYHRLPLSFGGGTKVEIK | 0.05 -0.12 -0.22 -0.23 -0.03 -0.13 | 2 of 18 (3.37) |
| 19 | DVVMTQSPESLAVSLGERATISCKLSQSWLYESRNKNSVAWYQQKAGQPPKLLIYNASLRESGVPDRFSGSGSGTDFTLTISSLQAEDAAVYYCQQYHRLPLSFGGGTKVEIK | 0.21 0.22 0.25 0.06 0.15 0.12 | 2 of 18 (4.15) |
| 20 | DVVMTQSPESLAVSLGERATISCKLSQSVLYEERNKNNVAWYQQKAGQPPKLLIYEASTRESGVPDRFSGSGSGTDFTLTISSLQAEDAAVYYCQQYHRLPLSFGGGTKVEIK | -0.10 -0.36 -0.28 -0.37 -0.33 -0.19 | 0 of 18 |
| 21 | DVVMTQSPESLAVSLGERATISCKLSQSELYESRNKNSVAWYQQKAGQPPKLLIYEASQREEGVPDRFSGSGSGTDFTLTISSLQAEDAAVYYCQQYHRLPLSFGGGTKVEIK | -0.24 -0.44 -0.55 -0.73 -0.54 -0.42 | 1 of 18 (2.61) |
| 22 | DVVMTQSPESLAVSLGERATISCKFQQSVLYESRNKNSVAWYQQKAGQPPKLLIYNASTRCSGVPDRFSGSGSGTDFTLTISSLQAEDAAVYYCQQYHRLPLSFGGGTKVEIK | 0.11 -0.18 -0.23 -0.14 -0.20 0.09 | 1 of 18 (3.53) |
| 23 | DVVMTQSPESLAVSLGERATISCKLYQSHLYESRNKNSVAWYQQKAGQPPKLLIYEASTRESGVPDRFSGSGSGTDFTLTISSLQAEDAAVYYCQQYHRLPLSFGGGTKVEIK | 0.37 0.02 0.00 -0.09 -0.17 0.24 | 1 of 18 (2.31) |

Repeated from above, the 4 best binders with a signal in all replicates:

VL,log10 Kd (nM) by replicate,control signals
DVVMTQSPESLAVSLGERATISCKLSQSVMYESRNKNNVAWYQQKAGQPPKLLIYDASTRESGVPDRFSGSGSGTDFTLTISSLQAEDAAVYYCQQYHRLPLSFGGGTKVEIK,-0.58 -0.67 -0.73 -0.69 -0.62 -0.48,2 of 18 (2.14)
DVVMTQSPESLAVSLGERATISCKISQSVGYESRNKNSVAWYQQKAGQPPKLLIYDASTRESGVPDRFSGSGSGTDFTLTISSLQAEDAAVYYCQQYHRLPLSFGGGTKVEIK,-0.29 -0.57 -0.54 -0.68 -0.63 -0.58,1 of 18 (2.50)
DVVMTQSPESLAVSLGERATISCKLSQSELYESRNKNSVAWYQQKAGQPPKLLIYEASQREEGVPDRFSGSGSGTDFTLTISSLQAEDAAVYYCQQYHRLPLSFGGGTKVEIK,-0.24 -0.44 -0.55 -0.73 -0.54 -0.42,1 of 18 (2.61)
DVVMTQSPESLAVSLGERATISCKLSQSVLYEMRNKNSVAWYQQKAGQPPKLLIYGASTRESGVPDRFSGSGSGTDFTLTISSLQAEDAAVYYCQQYHRLPLSFGGGTKVEIK,-0.23 -0.28 -0.49 -0.58 -0.65 -0.41,2 of 18 (2.99)

Three control strains display no target. For all light chain designs, 4% of the pairings with them gave a signal, with a median of 2.64 and one signal in twenty below 1.59, so weak values seen in few replicates may be background. The control count says in how many pairings with the empty strains this scFv gave a signal, with their mean in brackets. The authors' rule: three or more of the six replicates give a measured affinity, fewer mean a poor binder. The range of this assay differs from that of the first round, and the authors advise against merging the two.